AlphaSeq binding of Ab-14 light chain variants to a spike HR2 peptide

Data: MIT Lincoln Laboratory AlphaSeq set, Li et al. 2023, doi:10.1038/s41467-023-39022-2, as distributed in FLAb.

Target peptide (SARS-CoV-2 spike, HR2 region): PDVDLGDISGINAS

Ab-14 is the parent antibody, in scFv form: VH, then three GGGGS repeats, then VL. The heavy chain is unchanged in all variants.
VH: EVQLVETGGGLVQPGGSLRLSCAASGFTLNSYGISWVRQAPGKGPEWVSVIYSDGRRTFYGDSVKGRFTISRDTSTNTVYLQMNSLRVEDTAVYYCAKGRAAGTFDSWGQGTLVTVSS
VL: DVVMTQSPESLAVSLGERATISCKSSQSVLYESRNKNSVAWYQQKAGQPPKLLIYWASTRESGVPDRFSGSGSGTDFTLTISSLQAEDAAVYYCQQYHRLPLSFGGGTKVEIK

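This is the validation round: designs drawn from the data on random variants, tested in the same kind of assay. Their group label is 14L_GP_HC (GP: Gaussian process model; HC: hill climbing; a sequence that several methods proposed may carry one label only). AlphaSeq pools MATa yeast showing the antibodies with MATalpha yeast showing the peptide. After mating in shaken culture at 30 °C for 16 h, diploids were selected and their barcode pairs sequenced. Each replicate has its own calibration line, from reference interactions of the BCL2 family. The assay was run in six technical replicates.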

Variants are written as CDR1, CDR2 and CDR3 of the light chain (limits as in the source). Parent: KSSQSVLYESRNKNSVA, WASTRES, QQYHRLPLS. Scale: log10 of Kd in nM, estimated from mating counts; low values are strong binders. The mean shown is taken over the replicates in which the pair was detected. A pair that was not seen in that replicate is written "n.d."; this usually means weak binding, but a binder can also be missed.

| # | CDR-L1 | CDR-L2 | CDR-L3 | log10 Kd, replicates | mean, log10 nM | control signals |
|---|---|---|---|---|---|---|
| 1 | KSSYSYLGEKRNKNSVA | EASTRES | QQYHRLPLS | 0.88 / 0.88 / 0.06 / 0.11 / 0.33 / 0.43 | 0.45 | 1 of 18 (1.95) |
| 2 | KVSQSWLYESRNKNSVA | GASFRES | QQYHRLPLS | 0.17 / 0.39 / 0.23 / 0.13 / -0.04 / 0.21 | 0.18 | 0 of 18 |
| 3 | KFSQSVLYESRNKNSVA | NASTREW | QQYHRLPLS | -0.16 / -0.15 / -0.22 / -0.35 / -0.43 / -0.19 | -0.25 | 0 of 18 |
| 4 | KSTQSVLYESRNKNSVA | HASTRED | QQYHRLPLS | 0.64 / 0.81 / 0.76 / 0.77 / 0.67 / 1.03 | 0.78 | 1 of 18 (2.55) |
| 5 | KLSQSSLYESRNKNSVA | GGNTRES | QQYHRLPLS | -0.15 / -0.50 / -0.67 / -0.54 / -0.27 / -0.35 | -0.41 | 0 of 18 |
| 6 | KSSISFLYESRNKNSVA | EASTRES | QQYHRLPLM | 0.63 / 0.42 / 0.35 / 0.59 / 0.53 / 0.41 | 0.49 | 1 of 18 (2.76) |
| 7 | KLPQGVLYESRNKNSVA | GASQRES | QQYHRLPLS | -0.07 / -0.22 / -0.56 / -0.51 / -0.16 / -0.30 | -0.30 | 0 of 18 |
| 8 | KLSQSWIYESRNKNSVA | GASTRES | QQYHRLPLS | -0.19 / -0.22 / -0.23 / -0.41 / -0.17 / -0.20 | -0.24 | 2 of 18 (2.00) |
| 9 | KMEQGQLYESRNKNSVA | GASVRES | QQYHRLPLS | 0.01 / -0.26 / -0.37 / -0.31 / -0.40 / -0.31 | -0.27 | 1 of 18 (2.45) |
| 10 | KQSQSVLYESRNKNAVA | DASTRES | QQYHWLPLS | 0.53 / 0.12 / 0.14 / 0.01 / 0.56 / 0.61 | 0.33 | 0 of 18 |
| 11 | KQSFSVLQESRNKNSVA | DASTRES | QQYHRLPLS | 0.59 / -0.14 / -0.11 / -0.42 / 0.00 / -0.02 | -0.01 | 0 of 18 |
| 12 | KSSQSVLYESNNKNSVA | NASTRMS | QQYHRLPLS | 0.89 / 0.64 / 1.25 / 0.94 / 0.72 / 1.09 | 0.92 | 0 of 18 |
| 13 | KSLQSGLGESRNKNSVA | HASTRED | QQYHRLPLS | 0.33 / 0.12 / -0.01 / 0.08 / 0.50 / 1.05 | 0.35 | 0 of 18 |
| 14 | KLVNSTLYESRQKNNVA | WASTRES | QQYHRLPLS | n.d. / n.d. / n.d. / 1.81 / 3.31 / n.d. | 2.56 | 0 of 18 |
| 15 | KVLQSVLYESRNKNSVA | HASTRED | QQYHRLPLS | 0.06 / 0.29 / 0.25 / 0.15 / 0.07 / 0.39 | 0.20 | 0 of 18 |
| 16 | KSLQSQLYESRNKNSVA | HASTREQ | QQYHRLPLS | 0.71 / 0.77 / 0.38 / -0.32 / 0.25 / 0.57 | 0.39 | 0 of 18 |
| 17 | HLSPSVLYESRNKNSVA | NGSTREV | QQYHRLPLS | -0.31 / -0.47 / -0.19 / -0.49 / -0.52 / -0.36 | -0.39 | 0 of 18 |
| 18 | HLSPSVAYESRNKNSVA | NASTRES | QQYHRLPLS | 0.02 / -0.22 / -0.31 / -0.25 / -0.25 / 0.00 | -0.17 | 2 of 18 (3.22) |
| 19 | KSSQSVMMESRNANSVA | DASTRES | QQYHRLPLS | -0.02 / 0.23 / -0.25 / -0.39 / -0.32 / -0.05 | -0.13 | 2 of 18 (3.34) |
| 20 | KSSDSVLYESRNKNSVA | GASTRES | QQYHRLPLS | 0.56 / 0.94 / 1.90 / 0.84 / 0.74 / 0.65 | 0.94 | 0 of 18 |
| 21 | KFSPSGLYESRTKNSVA | NASTRES | QQYHRLPLS | 0.14 / -0.07 / -0.04 / 0.14 / -0.05 / 0.16 | 0.05 | 1 of 18 (3.09) |
| 22 | KFSDSVLLESRTDNSVA | NASTRES | QQYHRLPLS | 0.15 / 0.06 / -0.09 / -0.08 / 0.19 / 0.14 | 0.06 | 4 of 18 (3.07) |
| 23 | KSSMSYLYESRNKNSVA | GASTRES | QQYHRLPLS | -0.05 / -0.16 / 0.28 / -0.18 / -0.05 / 0.22 | 0.01 | 1 of 18 (2.76) |
| 24 | KASWSVLFESRNKNSVA | DASTRSS | QQYHRLPLS | 0.18 / -0.05 / -0.06 / -0.18 / 0.02 / 0.06 | -0.01 | 0 of 18 |
| 25 | KSSQVYLYESRNKNSVA | GASTRED | QQYHRLPLS | 0.00 / -0.24 / -0.34 / -0.02 / -0.04 / -0.34 | -0.16 | 0 of 18 |
| 26 | KSSQSELYESRNKNSVA | SASTRES | QQYHRLPLS | 0.61 / 0.09 / 0.30 / 0.18 / 0.64 / 0.43 | 0.37 | 0 of 18 |
| 27 | KSDQSWLYESRNKNSVA | GASFRES | QQYHRLPLS | 0.05 / -0.16 / -0.26 / -0.39 / -0.26 / -0.01 | -0.17 | 4 of 18 (3.10) |
| 28 | KVSQSVLYESRCKNSVA | NASTRES | QQYHRLPLS | 0.13 / 0.15 / 0.24 / 0.16 / 0.28 / 0.10 | 0.18 | 0 of 18 |
| 29 | KLLQSVLYESRQKNSVA | HASTRED | QQYHRLPLS | 0.73 / 1.37 / 0.75 / 0.83 / 0.86 / 1.08 | 0.94 | 1 of 18 (3.33) |
| 30 | NLSQSWLYESRNKNSVA | NGNTRES | QQYHRLPLS | -0.24 / -0.48 / -0.45 / -0.63 / -0.64 / -0.42 | -0.48 | 3 of 18 (3.18) |
| 31 | HLSQVVLYESRNKNSVA | NASTRES | QQYHRLPLS | -0.12 / -0.12 / -0.04 / -0.27 / -0.20 / 0.16 | -0.10 | 1 of 18 (1.96) |
| 32 | KSSISYLEGSRNKNSVA | EASTRES | QQYHRLPLS | 0.29 / 0.02 / 0.17 / 0.09 / 0.07 / 0.22 | 0.14 | 2 of 18 (2.04) |
| 33 | KTGQGVLYESRNKNSVA | GASHRES | QQYHRLPLS | 0.59 / 0.29 / 0.49 / 0.46 / 0.58 / 0.65 | 0.51 | 1 of 18 (3.14) |
| 34 | KSSGSVLYESNNKNSVA | HASTRED | QQYHRLPLS | 0.40 / 0.18 / 0.02 / 0.06 / -0.06 / 0.21 | 0.13 | 1 of 18 (2.20) |
| 35 | KLRMSTLYESRNKNSVA | WASTREE | QQYHRLPLS | 0.85 / 0.67 / 0.42 / 0.19 / 0.28 / 0.21 | 0.44 | 0 of 18 |
| 36 | KSSVSVKFESRNKNSVA | DASTRES | QQYHRLPLS | 0.44 / 0.49 / 1.07 / 0.10 / 1.13 / 0.45 | 0.61 | 0 of 18 |
| 37 | KISQSVDFESRNKNSVA | DASTRES | QQYHRLPLS | -0.09 / -0.32 / -0.42 / -0.29 / -0.37 / -0.24 | -0.29 | 0 of 18 |
| 38 | KVYQSYLYESRNKNSVA | QASTRES | QQYHRLPLS | 0.10 / 0.02 / -0.01 / -0.08 / -0.03 / 0.13 | 0.02 | 1 of 18 (2.45) |
| 39 | KMEQGVLYESRNKGSVA | GASTRES | QQYHRLPLS | -0.13 / -0.23 / -0.18 / -0.37 / -0.30 / -0.07 | -0.21 | 3 of 18 (2.42) |
| 40 | KSSISYLYESRNKNSVA | NASERES | QQYHRLPLS | 0.64 / 0.06 / 0.06 / 0.13 / 0.11 / 0.15 | 0.19 | 1 of 18 (2.18) |

The first 3 entries again:

| CDR-L1 | CDR-L2 | CDR-L3 | log10 Kd, replicates | mean, log10 nM | control signals |
|---|---|---|---|---|---|
| KSSYSYLGEKRNKNSVA | EASTRES | QQYHRLPLS | 0.88 / 0.88 / 0.06 / 0.11 / 0.33 / 0.43 | 0.45 | 1 of 18 (1.95) |
| KVSQSWLYESRNKNSVA | GASFRES | QQYHRLPLS | 0.17 / 0.39 / 0.23 / 0.13 / -0.04 / 0.21 | 0.18 | 0 of 18 |
| KFSQSVLYESRNKNSVA | NASTREW | QQYHRLPLS | -0.16 / -0.15 / -0.22 / -0.35 / -0.43 / -0.19 | -0.25 | 0 of 18 |

As a blank, each scFv also met three strains without target: over all light chain designs, 4% of these pairings were detected, typically at 2.64 and seldom below 1.59. The control count says in how many pairings with the empty strains this scFv gave a signal, with their mean in brackets. Values of this round are not directly comparable with the first-round values of the same sequences. The authors' rule: three or more of the six replicates give a measured affinity, fewer mean a poor binder. Of ten entries with the parent sequence, four were seen in most replicates (averages 0.34 to 2.37), three in one and three in none, so single entries are noisy.